What was measured:
Full-length BTKC481S = Full-length BTKC481S (Homo sapiens, UniProt Q06187, C481S); test: BTKC481S Kinase Activity Assay; settings: AlphaScreen, 60 μM ATP; test concentration not given
Procedure: BTKC481S Kinase Activity Assay
Test inhibitors and controls (Staurosporine) were prepared in 10% DMSO at 10-fold the desired final concentration, and added to each well of a reaction plate (Corning 96-well half-area solid white nonbinding surface plate) in a volume of 2.5 μl. Full-length BTKC481S was diluted in assay buffer (50 mM Tris, pH 8.0, 0.02 mg/ml BSA, 10 mM MgCl2, 1 mM EGTA, 10% glycerol, 1 mM DTT, 1 mM β-glycerophosphate, and 1 mM NaF) and added to each well in a volume of 17.5 μl for a final concentration in the 25 μl reaction of 10 nM. After a 30 minute pre-incubation at room temperature, the kinase reaction was initiated by the addition of 5 μl of an activation mixture diluted in assay buffer containing biotinylated PLCγ2 peptide, and ATP for final concentrations of 125 nM biotinylated PLCγ2, and 60 μM ATP. The plates were incubated for 60 minutes at room temperature. The reactions were stopped in the dark by the addition of 10 μl stop/detection mixture prepared in assay buffer containing EDTA, Staurosporine and AlphaScreen™ Streptavidin Donor and anti-pTYR100 Acceptor beads. […] Assay plates were incubated for 60 minutes at room temperature in the dark, and the plates were read on a Perkin Elmer Envision Multilabel plate reader (excitation wavelength: […], emission wavelength: 570 nm).

Amino acid sequences for entries named in this document (tags omitted).
UniProt Q06187, whole entry: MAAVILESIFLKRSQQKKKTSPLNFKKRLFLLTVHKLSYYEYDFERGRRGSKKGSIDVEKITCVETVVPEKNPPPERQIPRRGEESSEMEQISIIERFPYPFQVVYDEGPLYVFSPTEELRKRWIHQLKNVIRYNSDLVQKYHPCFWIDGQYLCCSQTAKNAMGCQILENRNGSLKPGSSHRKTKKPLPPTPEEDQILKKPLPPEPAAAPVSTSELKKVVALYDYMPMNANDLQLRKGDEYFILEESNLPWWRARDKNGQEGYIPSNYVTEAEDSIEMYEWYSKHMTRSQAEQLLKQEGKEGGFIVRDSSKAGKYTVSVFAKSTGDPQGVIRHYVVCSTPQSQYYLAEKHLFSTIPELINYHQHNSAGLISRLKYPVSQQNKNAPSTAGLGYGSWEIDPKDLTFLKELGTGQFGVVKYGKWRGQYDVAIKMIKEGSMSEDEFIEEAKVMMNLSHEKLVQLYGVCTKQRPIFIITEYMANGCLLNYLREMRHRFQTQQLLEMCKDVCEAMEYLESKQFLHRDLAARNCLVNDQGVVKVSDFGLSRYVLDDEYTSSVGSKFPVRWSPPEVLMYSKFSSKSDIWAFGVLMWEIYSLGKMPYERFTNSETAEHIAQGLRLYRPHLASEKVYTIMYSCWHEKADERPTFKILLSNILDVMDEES
UniProt Q06187, whole entry C481S: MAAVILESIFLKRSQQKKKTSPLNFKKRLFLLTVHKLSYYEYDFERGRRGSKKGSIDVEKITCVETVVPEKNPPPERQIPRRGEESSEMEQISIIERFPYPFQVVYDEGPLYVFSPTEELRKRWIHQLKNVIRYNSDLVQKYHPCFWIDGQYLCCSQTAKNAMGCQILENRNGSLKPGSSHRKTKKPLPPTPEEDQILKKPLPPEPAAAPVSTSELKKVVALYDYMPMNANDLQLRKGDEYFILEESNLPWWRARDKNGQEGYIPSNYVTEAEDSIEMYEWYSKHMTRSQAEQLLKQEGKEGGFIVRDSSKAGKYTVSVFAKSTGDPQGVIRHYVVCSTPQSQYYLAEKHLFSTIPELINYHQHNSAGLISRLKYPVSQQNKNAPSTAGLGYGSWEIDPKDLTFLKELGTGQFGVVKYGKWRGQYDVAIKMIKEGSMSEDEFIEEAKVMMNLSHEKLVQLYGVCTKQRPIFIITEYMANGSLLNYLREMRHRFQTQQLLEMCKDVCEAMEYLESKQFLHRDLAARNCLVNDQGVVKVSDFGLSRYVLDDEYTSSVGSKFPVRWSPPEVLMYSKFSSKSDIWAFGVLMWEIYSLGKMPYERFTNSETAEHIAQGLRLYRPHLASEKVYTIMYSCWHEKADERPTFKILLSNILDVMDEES

Full-length inactive BTK = Full-length inactive BTK (Homo sapiens, UniProt Q06187); test: BTK Kinase Activity Assay; settings: read-out: BTK IC50; AlphaScreen, 25 μM ATP, 30 minute pre-incubation
Procedure: BTK Kinase Activity Assay
After a 30 minute pre-incubation at room temperature, the kinase reaction was initiated by the addition of 5 μl of an activation mixture diluted in assay buffer containing biotinylated PLCγ2 peptide, DOPS/DOPC, PtdIns(3,4,5)P3, and ATP for final concentrations of 100 nM biotinylated PLCγ2, 5.5 μM DOPS, 5.5 μM DOPC, 0.5 μM PtdIns(3,4,5)P3, and 25 μM ATP. The plates were incubated for 60 minutes at room temperature. The reactions were stopped in the dark by the addition of 10 μl stop/detection mixture prepared in assay buffer containing EDTA and AlphaScreen™ Streptavidin Donor and anti-pTYR100 Acceptor beads. The final concentrations were 10 mM EDTA and 500 ng/well of both AlphaScreen™ (Amplified Luminescent Proximity Homogeneous Assay) technology donor and acceptor beads. Assay plates were incubated for 60 minutes at room temperature in the dark, and the plates were read on a Perkin Elmer Envision Multilabel plate reader (excitation wavelength: […], emission wavelength: 570 nm).

TMD-8 = test: Anti Proliferation Assay (MTS), TMD-8; settings: read-out: MTS/TMD-8, TMD-8 cells, 72 hours treatment
Procedure: (§1) Cell survival was determined by the MTS assay. Briefly, cells were plated in a 96-well plate at 2,000-10,000 cells per well, cultured for 24 hours in complete growth medium, and then treated with various drugs and drug combinations for 72 hours. MTS/PMS was added and incubated for 4 hour, followed by assessment of cell viability using the microplate reader (absorbance at 490 nm). Data were normalized to untreated controls and analyzed with Microsoft Excel.

Rec-1 = test: Anti Proliferation Assay (MTS), Rec-1; settings: read-out: MTS/Rec-1, Rec-1 cells, 72 hours treatment
Procedure: as §1

- BTK (C481S) (% inhibition) (Full-length BTKC481S): 96.6%
- IC50 (Full-length inactive BTK): 36 nM
SMILES: Nc1ccc2c(c1)OCC(CNc1ncc3c4[nH]ncc4c(=O)n(-c4ccccc4)c3n1)O2 (stereo not shown)
- IC50 (TMD-8): 2200 nM
- IC50 (Rec-1): 19300 nM

— patent US9012466B2, “Substituted tricyclic pyrazolo-pyrimidine compounds” (ArQule, Inc., priority 2013, dated 2015)
